Literature values as cited in PMC5601360 (Journal of Medicinal Chemistry, 2017).

Tested on: acetic acid-induced writhing in CD1 mice
Settings: sc, writhing assay, ref 9a; cited from earlier work

CN(C(=O)Cc1ccc(Cl)c(Cl)c1)[C@@H]1CCCC[C@H]1N1CCCC1
antinociceptive ED50 (95% CI): 1.54 (0.74–3.20) mg/kg
